Literature values as cited in Sander's compilation of Henry's law constants (doi:10.1016/j.chemosphere.2007.04.088).

Assay: Henry solubility constant Hcp at 298.15 K (mol/(m3 Pa))
Conditions: reference: Warneck (2007); cited value

CCl [chloromethane]
Henry solubility constant Hcp: 0.0011
